Values of other authors in patent US12478643B2, “Compositions and methods for the prevention or treatment of rheumatoid arthritis” (Rhode Island Hospital, priority 2021, dated 2025).

Target: T1, SHIP2 (Homo sapiens, UniProt O15357)
T1 sequence (O15357 1-1258): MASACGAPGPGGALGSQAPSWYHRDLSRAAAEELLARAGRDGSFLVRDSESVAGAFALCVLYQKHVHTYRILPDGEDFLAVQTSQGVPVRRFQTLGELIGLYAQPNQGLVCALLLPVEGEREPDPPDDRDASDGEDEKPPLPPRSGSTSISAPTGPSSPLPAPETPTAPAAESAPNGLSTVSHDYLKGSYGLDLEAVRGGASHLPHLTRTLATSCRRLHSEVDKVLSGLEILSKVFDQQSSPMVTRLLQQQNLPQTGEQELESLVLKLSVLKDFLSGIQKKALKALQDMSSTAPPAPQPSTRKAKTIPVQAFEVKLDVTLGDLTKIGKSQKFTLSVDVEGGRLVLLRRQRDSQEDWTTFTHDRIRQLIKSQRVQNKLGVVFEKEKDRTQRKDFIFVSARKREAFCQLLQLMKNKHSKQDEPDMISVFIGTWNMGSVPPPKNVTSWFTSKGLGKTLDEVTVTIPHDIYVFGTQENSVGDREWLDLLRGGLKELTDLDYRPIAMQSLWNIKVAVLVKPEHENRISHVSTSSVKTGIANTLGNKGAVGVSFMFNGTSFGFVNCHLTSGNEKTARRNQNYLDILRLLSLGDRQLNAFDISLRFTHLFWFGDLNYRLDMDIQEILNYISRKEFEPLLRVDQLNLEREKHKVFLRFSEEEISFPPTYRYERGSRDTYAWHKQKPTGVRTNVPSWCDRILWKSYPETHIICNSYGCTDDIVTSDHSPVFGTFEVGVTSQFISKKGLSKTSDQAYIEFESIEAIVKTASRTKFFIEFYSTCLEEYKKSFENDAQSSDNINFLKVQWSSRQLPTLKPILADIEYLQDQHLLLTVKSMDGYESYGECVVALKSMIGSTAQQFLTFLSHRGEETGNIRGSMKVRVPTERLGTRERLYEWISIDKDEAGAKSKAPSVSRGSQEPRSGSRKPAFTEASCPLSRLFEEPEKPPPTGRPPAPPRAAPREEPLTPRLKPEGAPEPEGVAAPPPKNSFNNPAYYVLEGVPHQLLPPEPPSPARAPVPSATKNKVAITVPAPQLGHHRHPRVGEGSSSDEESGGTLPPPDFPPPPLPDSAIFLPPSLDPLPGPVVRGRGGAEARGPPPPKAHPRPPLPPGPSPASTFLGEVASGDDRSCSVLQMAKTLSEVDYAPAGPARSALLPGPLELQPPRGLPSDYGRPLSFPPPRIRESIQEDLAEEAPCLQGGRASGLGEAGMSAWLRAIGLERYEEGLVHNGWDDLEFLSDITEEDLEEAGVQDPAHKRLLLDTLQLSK
Conditions: Table 1; cited from earlier work

For `C[C@H](NC(=O)c1sccc1OCc1ccc(Cl)cc1)c1ccccc1` [AS194490], the pIC50 is given as 6.22.
In the case of `CC[C@H]1CC[C@H]2[C@@H]3C[C@@H](O)[C@@]4(O)C[C@H](N)CC[C@]4(C)[C@H]3CC[C@]12C` [Compound K116], the pIC50 is listed as 4.89 to 5.19.

pIC50: −log10 of the molar value.
